The values below are quoted from earlier work in paper PMC7482398 (Molecular Pharmaceutics, 2020).

This data set deals with P-gp. Particulars: NHP, tariquidar infusion 2 h at 4 mg/kg/h; cited from earlier work.

`CCN(CC)CCNC(=O)c1cc(Cl)c(N)cc1O[11CH3]` [[^11C]metoclopramide]: the “increase of VT compared to baseline” value is on record as 2.2 fold.
